MIC data for one molecule are collected here from ChEMBL document CHEMBL5634090, “Design of phenothiazine-based cationic amphiphilic derivatives incorporating arginine residues: Potential membrane-active broad-spectrum antimicrobials combating pathogenic bacteria in vitro and in vivo” (Eur J Med Chem, 2023).

The structures appear in SMILES notation. ≈ marks a conversion by molar mass, not a printed value.

This test relates to Pseudomonas aeruginosa. Kind of test: Antibacterial activity against Pseudomonas aeruginosa ATCC 9027 by microbroth dilution assay. The class given is functional. A general note: Dilution methods test growth across graded concentrations, often in twofold steps.

Usually MIC stands for the lowest concentration found to suppress growth. `CC[C@H](C)[C@H](NC(=O)CN)C(=O)NCC(=O)N[C@@H](C)C(=O)N[C@H](C(=O)N[C@@H](CC(C)C)C(=O)N[C@@H](CCCCN)C(=O)N[C@H](C(=O)N[C@@H](CC(C)C)C(=O)N[C@H](C(=O)N[C@H](C(=O)NCC(=O)N[C@@H](CC(C)C)C(=O)N1CCC[C@H]1C(=O)N[C@@H](C)C(=O)N[C@@H](CC(C)C)C(=O)N[C@H](C(=O)N[C@@H](CO)C(=O)N[C@@H](Cc1c[nH]c2ccccc12)C(=O)N[C@H](C(=O)N[C@@H](CCCCN)C(=O)N[C@@H](CCCNC(=N)N)C(=O)N[C@@H](CCCCN)C(=O)N[C@@H](CCCNC(=N)N)C(=O)N[C@@H](CCC(N)=O)C(=O)N[C@@H](CCC(N)=O)C(N)=O)[C@@H](C)CC)[C@@H](C)CC)[C@@H](C)O)[C@@H](C)O)C(C)C)C(C)C` [MELITTIN] yielded an MIC of 3.12 µg/mL (≈ 1.1 µM).
